Earlier results in EP0960886B1, “Peptide T and related peptides in the treatment of inflammation, including multiple sclerosis” (priority 1992, dated 1993).

How the values were obtained:
[1] = exit by diffusion only; cited from earlier work
[2] = in vivo; cited from earlier work

## C[C@@H](N)C(=O)N[C@@H](CO)C(=O)N[C@H](C(=O)N[C@H](C(=O)N[C@H](C(=O)N[C@@H](CC(N)=O)C(=O)N[C@@H](Cc1ccc(O)cc1)C(=O)N[C@H](C(N)=O)[C@@H](C)O)[C@@H](C)O)[C@@H](C)O)[C@@H](C)O [Peptide T, D-Ala-Ser-Thr-Thr-Thr-Asn-Tyr-Thr-NH2]
[1]
  transport from the blood to the brain: active, saturable transport system
[2]
  half life: < 1 h
